Values of other authors as cited in PMC2453524.

Tests used:
Hrs (Homo sapiens) = Hrs (Homo sapiens) (UniProt O14964)
STAM2 (Homo sapiens) = STAM2 (Homo sapiens) (UniProt O75886)

For Ubiquitin (from UniProt P0CG47), the Kd (Hrs (Homo sapiens)) is given as 200 µM and the Kd (STAM2 (Homo sapiens)) is given as 10 µM.
